By Km is commonly meant the concentration of substrate that gives half-maximal velocity.

Data set [1] deals with generic peptide substrate RRRLSFAEPG
Data set [2] deals with standard peptide substrate LRRASLG.

Turning to “catalytic subunit of cyclic AMP-dependent protein kinase (PKA)”, the Km was determined as 30 µM in data set [1] and 18 µM in data set [2].

Source of the values: patent publication US7727950.
